The test relates to pericytes. The note with it: mouse, in vivo.

Each structure is given as a SMILES string.

Consider `CC/C(=C(\c1ccccc1)c1ccc(OCCN(C)C)cc1)c1ccccc1` [TAM, Tamoxifen], for which the “cell-type specificity of tdTomato expression” value is “specifically in pericytes”.

(Values after patent US10342221B2, “Generation of an inducible pericyte-specific CRE mouse model” (University of Southern California, priority 2016, dated 2019).)
